In ChEMBL document CHEMBL3616460, “Discovery of novel S1P2 antagonists. Part 2: Improving the profile of a series of 1,3-bis(aryloxy)benzene derivatives” (Bioorg Med Chem Lett, 2015):

Experiment: Selectivity index, ratio of IC50 for human S1P2 to IC50 for rat S1P2

Compound | Ratio IC50
O=C(Nc1cc(Oc2ccncc2)cc(Oc2ccc(F)cc2)c1)N1CCC(O)(c2ccc(F)cc2)CC1 | 8.6
NC(=O)c1ccc(Oc2cc(NC(=O)N3CCC(O)(c4ccc(F)cc4)CC3)cc(Oc3ccc(F)cc3)c2)cc1 | 4.5
O=C(Nc1cc(F)cc(C(F)(F)F)c1)N1CCC(O)(c2ccc(Br)cc2)CC1 | 4.1
CS(=O)(=O)c1ccc(Oc2cc(NC(=O)N3CCC(O)(c4ccc(F)cc4)CC3)cc(Oc3ccc(F)cc3)c2)cc1 | 8.3
NS(=O)(=O)c1ccc(Oc2cc(NC(=O)N3CCC(O)(c4ccc(F)cc4)CC3)cc(Oc3ccc(F)cc3)c2)cc1 | 6.7
CCC(CC)CC1(O)CCN(C(=O)Nc2cc(F)cc(C(F)(F)F)c2)CC1 | 24
